Earlier results as cited in paper PMC7309225, “Synthesis, Biodistribution, and Radiation Dosimetry of a Novel mGluR5 Radioligand: ^18F-AZD9272” (ACS Chemical Neuroscience, 2020).

Conditions: in vivo; cited from earlier work

## ^18F-FDG
  Estimated radiation dose: 0.015–0.029 mSv/MBq
